Patent US20160106814A1, “Novel Oral Pharmaceutical Composition for Treatment of Diabetes” (NOVO NORDISK A/S, priority 2013, published 2016)

Test: Transport of GLP-1 peptide across mucus-producing E12 cell monolayers in the presence of sodium caprate and BBI
Format: in vitro ADME
Conditions: pH 7.4, apical to basolateral
Procedure: Buffer was then removed and the experiment initiated. […] Receiver samples (200 μl) were taken every 15 min.
In all samples with GLP-1 peptide and mannitol, the concentration of GLP-1 peptide was determined using a LOCI assay (or LC-MS assay) and scintillation counter, respectively.

[1] = 100 μM GLP-1 peptide + 13 mM sodium caprate + 0.2% BBI
[2] = 100 μM GLP-1 peptide + 13 mM sodium caprate, without BBI

Structure (SMILES) | Papp A→B [1] [×10⁻⁶ cm/s] | Papp A→B [2] [×10⁻⁶ cm/s]
CC[C@H](C)[C@H](NC(=O)[C@H](Cc1ccccc1)NC(=O)[C@H](CCC(=O)O)NC(=O)[C@H](CCCCNC(=O)[C@@H](N)CCCCNC(=O)[C@@H](N)CCCCNC(=O)CC[C@H](NC(=O)CCCCCCCCCCCCCCC(=O)O)C(=O)O)NC(=O)[C@H](C)NC(=O)[C@H](C)NC(=O)[C@H](CCC(N)=O)NC(=O)CNC(=O)[C@H](CCC(=O)O)NC(=O)[C@H](CC(C)C)NC(=O)[C@H](Cc1ccc(O)cc1)NC(=O)[C@H](CO)NC(=O)[C@H](CO)NC(=O)[C@@H](NC(=O)[C@H](CC(=O)O)NC(=O)[C@H](CO)NC(=O)[C@@H](NC(=O)[C@H](Cc1ccccc1)NC(=O)[C@@H](NC(=O)CNC(=O)[C@H](CCC(=O)O)NC(=O)C(C)(C)NC(=O)[C@@H](N)Cc1c[nH]cn1)[C@@H](C)O)[C@@H](C)O)C(C)C)C(=O)N[C@@H](C)C(=O)N[C@@H](Cc1c[nH]c2ccccc12)C(=O)N[C@@H](CC(C)C)C(=O)N[C@H](C(=O)N[C@@H](CCCNC(=N)N)C(=O)NCC(=O)N[C@@H](CCCNC(=N)N)C(=O)N[C@@H](CCCCNC(=O)[C@@H](N)CCCCNC(=O)[C@@H](N)CCCCNC(=O)CC[C@H](NC(=O)CCCCCCCCCCCCCCC(=O)O)C(=O)O)C(=O)O)C(C)C [GLP-1 peptide 3, N{Epsilon-26}-[(2S)-2-amino-6-[[(2S)-2-amino-6-[[(4S)-4-carboxy-4-(15-carboxypentadecanoylamino)butanoyl]amino]hexanoyl]amino]hexanoyl], N{Epsilon-37}-[(2S)-2-amino-6-[[(2S)-2-amino-6-[[(4S)-4-carboxy-4-(15-carboxypentadecanoylamino)butanoyl]-amino]hexanoyl]amino]hexanoyl]-[Aib8,Arg34,Lys37]-GLP-1-(7-37)-peptide] | 0.125 | 0.0907
CC[C@H](C)[C@H](NC(=O)[C@H](Cc1ccccc1)NC(=O)[C@H](CCC(=O)O)NC(=O)[C@H](CCCCNC(=O)COCCOCCNC(=O)CC[C@H](NC(=O)COCCOCCNC(=O)CCCCCCCCCCCCC(=O)O)C(=O)O)NC(=O)[C@H](C)NC(=O)[C@H](C)NC(=O)[C@H](CCC(N)=O)NC(=O)CNC(=O)[C@H](CCC(=O)O)NC(=O)[C@H](CC(C)C)NC(=O)[C@H](Cc1ccc(O)cc1)NC(=O)[C@H](CO)NC(=O)[C@H](CO)NC(=O)[C@@H](NC(=O)[C@H](CC(=O)O)NC(=O)[C@H](CO)NC(=O)[C@@H](NC(=O)[C@H](Cc1ccccc1)NC(=O)[C@@H](NC(=O)CNC(=O)[C@H](CCC(=O)O)NC(=O)C(C)(C)NC(=O)[C@@H](N)Cc1c[nH]cn1)[C@@H](C)O)[C@@H](C)O)C(C)C)C(=O)N[C@@H](C)C(=O)N[C@@H](Cc1c[nH]c2ccccc12)C(=O)N[C@@H](CC(C)C)C(=O)N[C@H](C(=O)N[C@@H](CCCNC(=N)N)C(=O)NCC(=O)N[C@@H](CCCNC(=N)N)C(=O)N[C@@H](CCCCNC(=O)COCCOCCNC(=O)CC[C@H](NC(=O)COCCOCCNC(=O)CCCCCCCCCCCCC(=O)O)C(=O)O)C(=O)O)C(C)C [GLP-1 peptide 10, N{Epsilon-26}-[2-[2-[2-[[(4S)-4-carboxy-4-[[2-[2-[2-(13-carboxytridecanoylamino)ethoxy]ethoxy]acetyl]amino]butanoyl]amino]ethoxy]ethoxy]acetyl], N {Epsilon-37}-[2-[2-[2-[[(4S)-4-carboxy-4-[[2-[2-[2-(13-carboxytridecanoylamino)ethoxy]-ethoxy]acetyl]amino]butanoyl]amino]ethoxy]ethoxy]acetyl]-[Aib8,Arg34, Lys37]-GLP-1-(7-37)-peptide] | 0.51 | 0.276
